Measurements as given in article PMC3726442, “Relationship between Genotypes Sult1a2 and Cyp2d6 and Tamoxifen Metabolism in Breast Cancer Patients” (PLoS ONE, 2013).

Assay: Plasma concentrations of tamoxifen and its metabolites in breast cancer patients on tamoxifen, by HPLC-tandem mass spectrometry
[1] = all samples analyzed, n = 125, before daily 20 mg TAM dose

- mean plasma concentration (±SD) [1]: 202.32 ± 94.55 ng/mL
- median plasma concentration [1]: 176.98 ng/mL
- plasma concentration, mean ±SD (genotype CYP2D6 I/P, n = 8): 173.84 ± 65.10 ng/mL
- plasma concentration, median (genotype CYP2D6 I/P, n = 8): 185.42 ng/mL
- plasma concentration, median (genotype CYP2D6 wt/I, n = 4): 189.98 ng/mL
- plasma concentration, median (genotype CYP2D6 wt/P, n = 26): 169.64 ng/mL
- plasma concentration, median (genotype CYP2D6 wt/wt, n = 78): 176.91 ng/mL
- plasma concentration, mean ±SD (genotype CYP2D6 wtxN/P, n = 2): 183.66 ± 114.20 ng/mL
- plasma concentration, median (genotype CYP2D6 wtxN/P, n = 2): 183.66 ng/mL
- plasma concentration, median (genotype CYP3A4 wt/*17, n = 9): 187.36 ng/mL
- plasma concentration, median (genotype CYP3A4 wt/wt, n = 107): 175.91 ng/mL
- plasma concentration, median (genotype CYP3A5 *3/*3, n = 117): 176.98 ng/mL
- plasma concentration, median (genotype SULT1A1 wt/*2, n = 46): 171.44 ng/mL
- plasma concentration, median (genotype SULT1A1 wt/wt, n = 60): 185.11 ng/mL
- plasma concentration, mean ±SD (genotype SULT1A2 *2/*2, n = 16): 191.59 ± 85.40 ng/mL
- plasma concentration, median (genotype SULT1A2 *2/*2, n = 16): 173.20 ng/mL
- plasma concentration, mean ±SD (genotype SULT1A2 *3/*3, n = 5): 188.23 ± 69.26 ng/mL
- plasma concentration, median (genotype SULT1A2 wt/*2, n = 33): 175.91 ng/mL
- plasma concentration, mean ±SD (genotype SULT1A2 wt/*3, n = 16): 184.68 ± 75.43 ng/mL
- plasma concentration, median (genotype SULT1A2 wt/*3, n = 16): 174.42 ng/mL
- plasma concentration, mean ±SD (genotype SULT1A2 wt/wt, n = 38): 189.75 ± 71.12 ng/mL
- plasma concentration, median (genotype SULT1A2 wt/wt, n = 38): 184.50 ng/mL
- plasma concentration, median (genotype SULT1E1 wt/*2, n = 28): 186.14 ng/mL
- plasma concentration, median (genotype SULT1E1 wt/wt, n = 88): 172.65 ng/mL
- mean plasma concentration (±SD) (patients not receiving CYP2D6 inhibitors): 203.63 ± 96.19 ng/mL
SMILES: CC/C(=C(\c1ccccc1)c1ccc(OCCN(C)C)cc1)c1ccccc1 [Tamoxifen]
